The target of series [1] is T1, Human GIP R (Homo sapiens, UniProt P48546).
T1 construct: expressed in transfected cells; host or cells: CHO
T1 sequence (P48546 22-466): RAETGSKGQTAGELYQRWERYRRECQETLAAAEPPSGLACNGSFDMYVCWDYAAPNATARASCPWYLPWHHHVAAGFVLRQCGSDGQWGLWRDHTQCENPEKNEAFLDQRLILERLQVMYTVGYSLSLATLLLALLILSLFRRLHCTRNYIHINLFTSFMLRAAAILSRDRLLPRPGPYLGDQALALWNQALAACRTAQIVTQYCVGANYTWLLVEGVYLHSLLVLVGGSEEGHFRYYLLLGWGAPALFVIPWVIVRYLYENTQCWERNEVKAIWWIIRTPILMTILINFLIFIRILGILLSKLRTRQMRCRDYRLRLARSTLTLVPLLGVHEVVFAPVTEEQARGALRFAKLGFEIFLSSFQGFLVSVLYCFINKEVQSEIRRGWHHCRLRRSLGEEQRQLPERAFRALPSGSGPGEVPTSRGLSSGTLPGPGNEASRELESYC
The series is described as follows: cAMP (HTRF) activity in CHO cells stably overexpressing GIP receptor. It is filed as cell-based. The conditions noted are these: EC50 of human GIP / EC50 of compound. In short, it runs like this:
(§1)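 Cells resuspended in HBSS are incubated with compound for 60 min at room temperature, then with HTRF cAMP detection reagent for a further 60 min. Concentration-response fits give agonist EC50 values in nM.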
On the technique in general: Time-resolved FRET reads energy transfer from a long-lived donor to a nearby acceptor.

Protein sequences, listed by entry. Tags and fused reporters are not part of them. Residues count along the entry.
UniProt P43220, 24-463: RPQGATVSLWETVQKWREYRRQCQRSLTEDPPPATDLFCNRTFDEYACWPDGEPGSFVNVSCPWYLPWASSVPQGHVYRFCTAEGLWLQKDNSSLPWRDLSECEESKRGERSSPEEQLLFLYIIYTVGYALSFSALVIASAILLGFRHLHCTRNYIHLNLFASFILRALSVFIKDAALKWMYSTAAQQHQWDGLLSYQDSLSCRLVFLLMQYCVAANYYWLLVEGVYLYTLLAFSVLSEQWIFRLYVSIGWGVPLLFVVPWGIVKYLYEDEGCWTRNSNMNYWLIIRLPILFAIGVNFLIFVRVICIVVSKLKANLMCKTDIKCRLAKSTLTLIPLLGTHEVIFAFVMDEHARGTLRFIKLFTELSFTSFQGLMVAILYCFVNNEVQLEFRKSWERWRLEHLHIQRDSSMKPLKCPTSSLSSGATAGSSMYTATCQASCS
UniProt P47871, 26-477: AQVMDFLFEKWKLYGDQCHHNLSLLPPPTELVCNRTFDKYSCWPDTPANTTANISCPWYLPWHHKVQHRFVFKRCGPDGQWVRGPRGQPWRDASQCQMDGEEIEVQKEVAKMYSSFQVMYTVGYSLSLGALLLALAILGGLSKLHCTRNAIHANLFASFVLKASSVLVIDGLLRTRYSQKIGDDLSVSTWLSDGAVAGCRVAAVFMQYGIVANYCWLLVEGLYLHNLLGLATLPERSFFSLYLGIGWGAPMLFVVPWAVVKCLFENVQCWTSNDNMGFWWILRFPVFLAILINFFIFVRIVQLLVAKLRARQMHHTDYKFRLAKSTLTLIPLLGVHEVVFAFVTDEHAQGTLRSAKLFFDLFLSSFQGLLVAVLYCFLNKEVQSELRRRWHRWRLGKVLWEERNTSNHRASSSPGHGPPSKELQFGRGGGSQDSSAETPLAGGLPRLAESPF

Series [2] deals with Human GLP-1R (Homo sapiens, UniProt P43220). Nature of the series: cAMP (HTRF) activity in HEK-293 cells stably overexpressing human GLP-1 receptor. Also noted: expressed in transfected cells; host or cells: HEK-293. The format is cell-based. In short, it runs like this:
as §1

For series [3], the system named is 3T3-L1 adipocytes. In a few lines: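 Mouse 3T3-L1 preadipocytes were differentiated with IBMX, dexamethasone and insulin for 5 days, then insulin plus 10 uM rosiglitazone for 3 days, then 10% FBS medium for 2–3 days. Mature adipocytes received 10-point, 3-fold compound dilutions for 60 min at room temperature. cAMP was read by kit detection reagent after a further 60 min, with concentration-effect curves fitted.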

Series [4] can be described thus: Rat pharmacokinetics (PK) study. It is filed as in vivo. The conditions noted are these: sc, male SD rats, subcutaneous 30 nmol/kg, plasma. The procedure:
7˜9 weeks old male SD rats (220-250 g, 3 rats/group) were subjected to subcutaneous injection of 30 nmol/kg compound. After administration, blood was collected through the jugular vein at time points 0.25, 2, 4, 8, 12, 16, 24, 48, 96, 120, and 144 hours. The blood was processed to obtain plasma samples and analyzed using LC-MS/MS. The blood concentration time curve was analyzed using Phoenix WinNonlin version 6.3 software (non compartment model), and PK parameters and half-life were calculated.

Series [5] relates to human primary liver cells. It is filed as cell-based. In short, it runs like this: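 Human primary hepatocytes, thawed at 37° C and resuspended in HBSS, exposed to compound for 60 min at room temperature. Detection reagent then added for 60 min before cAMP readout.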
The test system of series [6] is RIN-m5F cells. It is filed as cell-based, rat. In short, it runs like this: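 cAMP production measured in RIN-m5F cells resuspended in HBSS; compounds incubated 60 min at room temperature, then detection reagent added for a further 60 min before read-out.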
Series [7] has as its target T2, Human GCG R (Homo sapiens, UniProt P47871).
T2 construct: expressed in transfected cells; host or cells: HEK-293
The series is described as follows: cAMP (HTRF) activity in HEK-293 cells stably overexpressing human GCG receptor. The format is cell-based. The conditions noted are these: EC50 of human GCG / EC50 of compound. In a few lines: as §1

As for `CC[C@H](C)[C@H](NC(=O)[C@H](Cc1ccccc1)NC(=O)[C@H](C)NC(=O)C(C)(C)NC(=O)[C@H](CCC(N)=O)NC(=O)[C@H](C)NC(=O)[C@H](CCCCNC(=O)COCCOCCNC(=O)COCCOCCNC(=O)CC[C@H](NC(=O)CCCCCCCCCCCCCCCCCCC(=O)O)C(=O)O)NC(=O)[C@H](CCCCN)NC(=O)[C@H](CC(=O)O)NC(=O)[C@H](CC(C)C)NC(=O)[C@H](Cc1ccccc1)NC(=O)[C@@H](NC(=O)[C@H](CO)NC(=O)[C@H](Cc1ccc(O)cc1)NC(=O)[C@H](CC(=O)O)NC(=O)[C@H](CO)NC(=O)[C@@H](NC(=O)[C@](C)(Cc1ccccc1F)NC(=O)[C@@H](NC(=O)CNC(=O)[C@H](CCC(N)=O)NC(=O)C(C)(C)NC(=O)[C@@H](N)Cc1ccc(O)cc1)[C@@H](C)O)[C@@H](C)O)[C@@H](C)CC)C(=O)N[C@@H](CCC(=O)O)C(=O)N[C@@H](Cc1ccc(O)cc1)C(=O)N[C@@H](CC(C)C)C(=O)N[C@@H](CC(C)C)C(=O)N[C@@H](CCC(=O)O)C(=O)N[C@H](C(=O)NCC(=O)N1CCC[C@H]1C(=O)N[C@@H](CO)C(=O)N[C@@H](CO)C(=O)NCC(=O)N[C@@H](C)C(=O)N1CCC[C@H]1C(=O)N1CCC[C@H]1C(=O)N1CCC[C@H]1C(=O)N[C@@H](CO)C(N)=O)[C@@H](C)O` [Compound 17], in series [1], the “Human GIP R Rel. A (Relative Activity)” value was 952.63%. The EC50 (usually the concentration at which the effect is half-maximal) in series [2] was found to be 0.011 nM. The “Human GLP-1R Rel. A (Relative Activity)” value in series [2] (EC50 of human GLP-1 (7-37) / EC50 of compound) is on record as 400.00%. For the same compound, the EC50 in series [3] (read-out: EC50 on mouse 3T3-L1 adipocyte, cAMP, at least 3 independent tests) came to 9.73 nM. The “Rel. A (Relative Activity) on 3T3-L1 adipocyte” value in series [3] (relative to GIP) is 39.08%. In series [4], the area under the curve AUC(0-t) (usually the area under the concentration-time curve up to a stated or last time point) worked out at 5.81 µM·h; the peak level (Cmax) was 136 nM; the time to peak (Tmax) – broadly, the time from dosing to the highest level – came out at 17.3 h; the half-life (in general, the time needed for the level to fall by half in the phase considered) was 17.3 h. Besides, the EC50 in series [5] (cAMP, at least 3 independent tests, read-out: EC50 on human primary liver cells) was 1.68 nM. Moreover, the “Rel. A (Relative Activity) on human primary liver cells” value in series [5] (relative to GCG) was found to be 231.75%. Also, in series [6] (cAMP, at least 3 independent tests, read-out: EC50 on RIN-m5F rat pancreatic islet tumor cells), the half-maximal effective concentration (EC50) was 0.122 nM. Further, in series [6] (relative to GLP-1(7-37)), the “Rel. A (Relative Activity) on RIN-m5F” value is on record as 845.90%. The “Human GCG R Rel. A (Relative Activity)” value in series [7] came to 162.86%.

For the origin of these results see patent publication US20250129135A1, “Multi-Agonist and Use Thereof” (priority 2021, published 2025).
